# Experimental data reported in US11324714B2 (priority 2008, dated 2022).
# Tested on: normal Swiss-Webster mice
# Test: single dose injection toxicity (mortality)
# Type: in vivo
structure (smiles),measurement,value
CCC[As](CCC)SCC(O)CO (stereo not shown),LD50,100 mg/kg
